“Also recorded” adds a separate entry of the source.

The test system of test [1] is ORX1 over ORX2 receptors. The settings on record: cited from earlier work.
Test [2] relates to panic-prone rats. Conditions: 30 mg/kg i.p. prior to 15 min i.v. infusion of 0.5M sodium lactate. An excerpt: Panic disorder is associated with disruption of central inhibitory gamma-aminobutyric acid (GABAergic) tone, and may contribute to panic attacks which are consistently provoked by ordinarily mild physical stressors such as mild osmotic disturbances (e.g., intravenous sodium lactate challenges). […] Orexin/hypocretin producing neurons are almost exclusive to dorsomedial hypothalamus/perifornical area and adjacent lateral hypothalamus, and play a critical role in maintaining wakefulness, vigilance and central sympathetic mobilization, which are key components of panic and anxiety. Experiments were conducted to investigate whether the administration of either a systemic orexin 1 antagonist or silencing the hypothalamic orexin gene product with RNA interference could block lactate-induced panic responses.

On to `Cc1nc2ccc(NC(=O)Nc3ccnc4cccnc34)cc2o1` [SB334867, 1-(2-methylbenzoxazol-6-yl)-3-[1,5]naphthyridin-4-yl urea], for which the “selectivity for ORX1 over ORX2 receptors” value in test [1] is “around 100 ×”. Further, the “"anxiety"-like responses [social interaction (SI) duration] after sodium lactate” value in test [2] (FIG. 1B) is “attenuated; also recorded: blocks”. Besides, the “lactate induced increases in general locomotor activity (flight behavior)” value in test [2] (FIG. 1E) is on record as “attenuated; also recorded: blocks”.

The values are drawn from patent US8980910B2, “Treatment of glaucoma” (Indiana University Research and Technology Corporation, priority 2011, dated 2015).
